Values quoted from earlier work, collected in paper PMC6608750.
pKd: −log10 of the molar value.

Chains of the proteins cited; added tags and fusions are not shown. Residues count along the entry.
UniProt P10275, 1-559: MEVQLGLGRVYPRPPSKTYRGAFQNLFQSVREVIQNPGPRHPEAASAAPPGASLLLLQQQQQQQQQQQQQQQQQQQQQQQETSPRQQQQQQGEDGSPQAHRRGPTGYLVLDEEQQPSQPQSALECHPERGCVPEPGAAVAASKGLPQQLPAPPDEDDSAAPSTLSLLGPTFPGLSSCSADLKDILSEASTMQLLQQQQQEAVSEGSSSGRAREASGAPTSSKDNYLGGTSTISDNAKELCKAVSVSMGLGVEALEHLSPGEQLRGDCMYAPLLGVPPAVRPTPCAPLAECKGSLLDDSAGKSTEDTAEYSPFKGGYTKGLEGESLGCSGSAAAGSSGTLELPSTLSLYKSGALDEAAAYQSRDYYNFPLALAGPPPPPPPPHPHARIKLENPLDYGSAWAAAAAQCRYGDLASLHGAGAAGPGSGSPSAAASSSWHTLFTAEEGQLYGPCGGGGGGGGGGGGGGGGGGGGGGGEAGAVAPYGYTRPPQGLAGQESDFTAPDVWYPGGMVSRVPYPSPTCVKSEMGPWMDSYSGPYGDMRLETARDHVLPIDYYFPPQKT

Target: Androgen receptor TAD (Homo sapiens) (UniProt P10275)

In the case of BRD4 (from UniProt O60885), the pKd is given as 7.15.
